Results published in PubChem BioAssay AID1454 (National Center for Advancing Translational Sciences (NCATS), 2008).
The entries are a selection whose mix differs from that of the whole data set. Records with an inconclusive call do not appear. The source made the active and inactive calls. Calls come from the whole dose curve; as a rule, active = well fitted inhibition curve with a large enough effect; inconclusive = small, poorly fitted or top-dose-only effect, or effect the other way; inactive = flat fitted curve, though single readings scatter.

test: qHTS Assay for Inhibitors of the ERK Signaling Pathway using a Homogeneous Screening Assay; Stimulation with EGF; conditions: HEK293-V1b, EGF-stimulated phospho-ERK AlphaScreen; at 11.5 µM (top of the series) unless noted;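 note: plate controls were stimulated vehicle wells for no effect and unstimulated vehicle basal for full effect; nearly all actives have a fitted effect of over 55% in size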

**Q.** With CC(C)c1ccc(OP(C)(=O)Nc2ccc(SC(F)(F)F)cc2)cc1 (centres undefined) as the compound, how does the activity change, negative = inhibition read?
**A.** inactive: -8.13%

**Q.** For CCN(CC)CCCOC(=O)C(O)(c1ccccc1)C1CCCCC1 (centres undefined), which activity change, negative = inhibition is on record?
**A.** inactive: 5.61%

**Q.** Which activity change, negative = inhibition does the source give for COc1ccc(OP(C)(=O)Nc2ccc(SC(F)(F)F)cc2)cc1 (centres undefined) here?
**A.** inactive: 0.0173%

**Q.** Which activity change, negative = inhibition does the source give for CC1=NCCc2c1[nH]c1ccccc21.O=[N+]([O-])c1cc([N+](=O)[O-])c(O)c([N+](=O)[O-])c1 here?
**A.** inactive: -0.0719%

**Q.** For CP(=O)(Nc1cccc(Br)c1)Oc1ccccc1 (centres undefined), which activity change, negative = inhibition is on record?
**A.** inactive: 0.771%

**Q.** With CCOC(=O)c1ccc(NP(C)(=O)Oc2cc(C)cc(C)c2)cc1 (centres undefined) as the compound, how does the activity change, negative = inhibition read?
**A.** inactive: 6.52%

**Q.** With O=[N+]([O-])c1cc([N+](=O)[O-])c(-n2nnc3ccccc32)c([N+](=O)[O-])c1 as the compound, how does the activity change, negative = inhibition read?
**A.** inactive: -3.25%

**Q.** Which activity change, negative = inhibition does the source give for CN1CCCCC1COC(=O)C1(O)c2ccccc2CCc2ccccc21 (centres undefined) here?
**A.** inactive: 13.2%

**Q.** For CP(=O)(Nc1ccc(SC(F)(F)F)cc1)Oc1ccccc1 (centres undefined), which activity change, negative = inhibition is on record?
**A.** inactive: 0.732%

**Q.** Which activity change, negative = inhibition does the source give for CCCOc1ccc(NP(C)(=O)Oc2ccc(Cl)cc2)cc1 (centres undefined) here?
**A.** inactive: 6.57%

**Q.** With O=[N+]([O-])c1cc([N+](=O)[O-])c(Nc2nnnn2CCO)c([N+](=O)[O-])c1 as the compound, how does the activity change, negative = inhibition read?
**A.** inactive: -6.22% [at 57.5 µM]

**Q.** For CP(=O)(Nc1ccccc1Br)Oc1ccccc1 (centres undefined), which activity change, negative = inhibition is on record?
**A.** inactive: -5%

**Q.** For COc1ccccc1OP(C)(=O)Nc1ccccc1 (centres undefined), which activity change, negative = inhibition is on record?
**A.** inactive: -0.386%

**Q.** For CCOC(=O)c1ccc(NP(C)(=O)Oc2ccc(OC)cc2)cc1 (centres undefined), which activity change, negative = inhibition is on record?
**A.** inactive: 1.43%

**Q.** Which activity change, negative = inhibition does the source give for CP(=O)(Oc1ccccc1)OC(c1ccccc1)C(F)(F)F (centres undefined) here?
**A.** inactive: -5.31%

**Q.** Which activity change, negative = inhibition does the source give for CP(=O)(Nc1ccc(SC(F)(F)F)cc1)Oc1ccc(Cl)cc1 (centres undefined) here?
**A.** inactive: 7.54% [at 57.5 µM]

**Q.** With Cc1cccc(C)c1OP(C)(=O)Nc1ccc(SC(F)(F)F)cc1 (centres undefined) as the compound, how does the activity change, negative = inhibition read?
**A.** inactive: 7.4%

**Q.** For Cc1cc(C)cc(OP(C)(=O)Nc2ccc(SC(F)(F)F)cc2)c1 (centres undefined), which activity change, negative = inhibition is on record?
**A.** inactive: 11%

**Q.** With CCOC(=O)c1ccc(NP(C)(=O)Oc2ccccc2)cc1 (centres undefined) as the compound, how does the activity change, negative = inhibition read?
**A.** inactive: 1.4%

**Q.** For Cc1cc(C)cc(OP(C)(N)=O)c1 (centres undefined), which activity change, negative = inhibition is on record?
**A.** inactive: -0.785%

**Q.** With COc1ccccc1OP(C)(=O)Nc1cc(Cl)ccc1C (centres undefined) as the compound, how does the activity change, negative = inhibition read?
**A.** inactive: 6.52%

**Q.** With O=[N+]([O-])c1ccc2c(c1)C=Nc1ccccc1O2 as the compound, how does the activity change, negative = inhibition read?
**A.** inactive: -6.08%

**Q.** Which activity change, negative = inhibition does the source give for Cc1cccc(C)c1OP(C)(N)=O (centres undefined) here?
**A.** inactive: 29.9%

**Q.** Which activity change, negative = inhibition does the source give for CC(C)(C)c1ccc(OP(C)(=O)Nc2ccc(SC(F)(F)F)cc2)cc1 (centres undefined) here?
**A.** inactive: 1.04%
